{
  "source": "paper PMC3880646",
  "about": "(Journal of medicinal chemistry, 2013)",
  "key": {"[1]": {"test_system": "RS4;11 acute lymphoblastic leukemia xenograft", "assay_type": "in vivo"}, "[2]": {"test_system": "SJSA-1 osteosarcoma tumor xenograft", "assay_type": "in vivo"}},
  "note": "Like-named read-outs stand apart in the source and are kept apart here.",
  "data": [
    {"smiles": "CC(C)(C)C[C@@H]1N[C@@H](C(=O)N[C@H]2C[C@@](C)(O)C2)[C@H](c2cccc(Cl)c2F)[C@]12C(=O)Nc1cc(Cl)ccc12", "note": "[Compound 9]", "values": [
      {"measurement": "antitumor activity", "setting": "[1]; 100 mg/kg oral gavage daily for 3 weeks", "value": "rapid and complete tumor regression"},
      {"measurement": "antitumor activity", "setting": "[1]; 200 mg/kg oral gavage daily for 3 weeks", "value": "rapid and complete tumor regression"},
      {"measurement": "antitumor activity", "setting": "[2]; 10 mg/kg oral gavage daily for 2 weeks", "value": "no significant activity"},
      {"measurement": "antitumor activity", "setting": "[2]; 30 mg/kg oral gavage daily for 2 weeks", "value": "effectively inhibited tumor growth"},
      {"measurement": "antitumor activity", "setting": "[2]; 100 mg/kg oral gavage daily for 2 weeks", "value": "rapid and complete tumor regression"}
    ]}
  ]
}
